This note sets out measurements from US11844853B2, “Antiperspirant composition” (Conopco, Inc., priority 2018, dated 2023).

A short description of the data set: Solubility in water, stated in words.

For the substance “Zinc lysine complex [Example C, Zinc lysine complex [Zn (lysine)2. Cl2.2H2O]]”, the water solubility entry is listed as “water soluble”.
